From paper PMC4222909 (PLoS ONE, 2014) come the findings set out here.

As a reminder, the Kd is the equilibrium constant for the complex coming apart. Low values mean a tighter complex, high ones a looser complex.

The target of experiment [1] is T1, Zn(II)Har (heme associated regulator) (Porphyromonas gingivalis, UniProt B2RKX7, C97A).
T1 construct: gene PGN_1503
The experiment in a line: biochemical.

Experiment [2] deals with T2, Zn(II)Har (heme associated regulator) (Porphyromonas gingivalis, UniProt B2RKX7).
T2 construct: gene PGN_1503
The experiment in a line: biochemical.

`C=CC1=C(C)C2=Cc3c(C=C)c(C)c4[n]3[Fe]([Cl])[n]3c(c(C)c(CCC(=O)O)c3=CC3=NC(=C4)C(C)=C3CCC(=O)O)=CC1=N2` [hemin]: the Kd in experiment [1] was 1000 ± 370 nM; in experiment [2], 230 ± 120 nM.
